Source: BindingDB's records for doi:10.1016/0014-2999(96)00428-1 (Glaxo Research & Development, 1996)
Where “and” joins values, the source holds several entries; their conditions need not be identical. Equal values may be shown once.

Sequences of proteins named here, by UniProt entry; tags and fusion partners are left off.
UniProt Q5PPG3, whole entry: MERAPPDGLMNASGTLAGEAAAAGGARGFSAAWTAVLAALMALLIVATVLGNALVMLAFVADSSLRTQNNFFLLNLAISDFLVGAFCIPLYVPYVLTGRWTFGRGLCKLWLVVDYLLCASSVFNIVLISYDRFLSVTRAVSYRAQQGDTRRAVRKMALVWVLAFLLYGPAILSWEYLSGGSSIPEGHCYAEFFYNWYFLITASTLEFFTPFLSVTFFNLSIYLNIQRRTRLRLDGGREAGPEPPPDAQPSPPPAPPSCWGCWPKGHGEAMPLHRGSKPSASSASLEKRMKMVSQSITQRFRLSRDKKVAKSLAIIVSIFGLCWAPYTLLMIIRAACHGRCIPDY

Target: Hrh3 protein (Rattus norvegicus, UniProt Q5PPG3)

In the case of NC(=NCc1ccc(Cl)cc1)SCCCc1cnc[nH]1 [VUF 9153], the Ki is reported as 0.25 nM and 0.15 nM.
